Measurements taken from US20250115597A1, “TYK2 INHIBITORS AND COMPOSITIONS AND METHODS THEREOF” (LYNK PHARMACEUTICALS CO. LTD., priority 2021, published 2025).

By UniProt entry, the sequences of proteins in these tests, tags left out. Where a name states a change or a piece, a line headed by the entry shows the natural chain unless it says otherwise.
UniProt O60674: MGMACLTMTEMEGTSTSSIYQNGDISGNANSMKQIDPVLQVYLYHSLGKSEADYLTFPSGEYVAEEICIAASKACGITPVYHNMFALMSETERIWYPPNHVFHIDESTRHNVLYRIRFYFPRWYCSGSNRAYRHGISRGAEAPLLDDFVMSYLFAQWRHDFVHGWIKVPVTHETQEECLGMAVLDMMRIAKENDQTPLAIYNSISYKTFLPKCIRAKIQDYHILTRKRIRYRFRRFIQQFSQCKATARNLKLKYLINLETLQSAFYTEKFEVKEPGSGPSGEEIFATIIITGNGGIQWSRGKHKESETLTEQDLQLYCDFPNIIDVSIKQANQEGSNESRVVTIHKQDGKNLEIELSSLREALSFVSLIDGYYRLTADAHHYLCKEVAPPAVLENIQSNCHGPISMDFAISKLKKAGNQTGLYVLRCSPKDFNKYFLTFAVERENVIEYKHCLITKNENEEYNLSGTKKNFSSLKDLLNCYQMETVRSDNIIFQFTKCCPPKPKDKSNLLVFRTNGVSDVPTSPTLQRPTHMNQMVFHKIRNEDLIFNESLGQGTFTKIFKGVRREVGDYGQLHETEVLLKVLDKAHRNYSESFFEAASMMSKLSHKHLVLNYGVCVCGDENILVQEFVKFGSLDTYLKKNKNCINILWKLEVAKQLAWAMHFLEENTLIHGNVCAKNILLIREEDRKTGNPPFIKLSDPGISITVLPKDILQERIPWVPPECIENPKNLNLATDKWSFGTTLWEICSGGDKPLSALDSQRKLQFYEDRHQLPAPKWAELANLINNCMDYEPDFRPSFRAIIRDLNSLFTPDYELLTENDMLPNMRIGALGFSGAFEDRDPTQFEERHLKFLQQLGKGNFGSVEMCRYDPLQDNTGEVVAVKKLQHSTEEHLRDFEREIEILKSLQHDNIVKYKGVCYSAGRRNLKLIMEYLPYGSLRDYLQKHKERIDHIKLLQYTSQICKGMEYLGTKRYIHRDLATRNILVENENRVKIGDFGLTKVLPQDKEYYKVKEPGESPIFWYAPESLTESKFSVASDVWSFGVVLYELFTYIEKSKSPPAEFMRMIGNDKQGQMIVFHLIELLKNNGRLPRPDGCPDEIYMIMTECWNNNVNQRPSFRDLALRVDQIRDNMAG

Biological target: T1, JAK2 (Homo sapiens, UniProt O60674)
T1 construct: purchased Carna Biosciences
Assay: JAK2 kinase activity, microfluidic assay (Caliper EZ Reader II)
Assay type: biochemical
Conditions: JAK2 0.125 nM, 1 mM ATP
Description: Testing for JAK1, JAK2 and TYK2 Kinase Activities
JAK activity was determined in the reaction buffer 50 mM HEPES, 0.01% Brij35, 10 mM MgCl2, 2 mM DTT by a microfluidic assay. The phosphorylation of a FAM labeled peptide substrate was monitored in the Caliper EZ Reader II (Perkin Elmer). The assay condition for each batch of enzyme (Carna Biosciences) was optimized to obtain 10% conversion rate of peptide substrate.
The test compounds were dissolved in DMSO to a stock concentration of 10 mM. Three-fold serially diluted compounds with top concentration of 5 μM were pre-incubated with JAK1, JAK2 or TYK2 for 10 min at ambient temperature. The final DMSO concentration of assay mixture was 1%. […] The reaction was stopped by adding 50 mM EDTA.
The percent inhibition was calculated by the following formula:
[formula] • wherein • Conversion %_max=the conversion rate in the positive well without addition of compound • Conversion %_sample=the conversion rate of test compounds • Conversion %_min=the conversion rate in the well without addition of enzyme
The dose-response (percent inhibition) curve was plotted and IC50 values were determined by GraphPad software.

IC50: 2.48 µM
SMILES: [2H]C([2H])([2H])NC(=O)c1nnc(NC(=O)C2CC2)cc1Nc1cccc(-c2ncn(C)n2)c1OC [Example 41, 6-(Cyclopropanecarboxamido)-4-((2-methoxy-3-(1-methyl-1H-1,2,4-triazol-3-yl)phenyl)amino)-N-(methyl-d3)pyridazine-3-carboxamide]
